The list is not random: actives were taken first. Their share in the collection is about 1.7%.
CAL PDZ FP-1: inhibitors of human CAL PDZ peptide binding; Q9HD26; purified CAL PDZ, TMR-peptide fluorescence polarization, 1 h; inhibition, % at 20 µM; 330,000 tested, 0.02% active; AID 504414;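 active means highest replicate inhibition of at least 40%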;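 further: plate controls were DMSO neutral control wells for no effect and unlabeled competitor peptide control wells for full effect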
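System: purified tagged CAL PDZ domain construct (CerCALP). Schedule: 1 h incubation at room temperature before polarization reading. Medium: 25 mM sodium phosphate pH 7.4, 150 mM NaCl, TCEP, IgG, Thesit. Read-out: percent inhibition from loss of millipolarization. Measured by: FP readout, S and P plane fluorescence. Probe or stimulus: fluorescent TMR peptide probe.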
UUG fidelity: modulators of start codon recognition fidelity in yeast. activity score, % at 18.7 µM. S. cerevisiae UUG-firefly luciferase reporter, luminescence/redox ratio. 350,000 compounds, 0.13% hits;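 active means replicate mean at a twofold rise or more, about +100% in these data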;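 further: firefly luciferase made from a UUG start codon reports start codon fidelity; reporter light over untreated wells divided by growth signal over untreated wells; some hits fall short of that in this replicate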
CAL PDZ FP-2: blocks peptide binding to the human CAL PDZ domain. purified CAL PDZ, TMR-peptide fluorescence polarization, 1 h. inhibition, % at 24.9 µM. 300,000 tested, 0.92% active. AID 602252;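 active means mean inhibition of at least 30% with at least half of replicates also reaching 30%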;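 further: 0% = DMSO neutral control and 100% = excess unlabeled competitor peptide PRC23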
CDK5 inh: inhibitors of human CDK5/p35 kinase | Q00535+Q15078 | Recombinant CDK5/p35, ADP-Glo luminescence, 60 min | inhibition, % at 10 µM | 330,000 tested, 0.01% active | AID 488839;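 active means highest replicate inhibition of at least 50% and at least 75% of replicates reaching 50%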;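 further: plate controls were DMSO neutral control for no effect and GW8510 at 10 µM for full effect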
dFosB act-1: mouse delta FosB homodimer activation; P13346; purified delta FosB, TAMRA-CDK5 oligo fluorescence polarization; percent of positive-control signal above neutral wells; activation, % at 25 µM; 340,000 tested, 0.99% active;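 active means mean activation above about 17%, with every replicate also reaching it, limit read from the data, passing the limit was not always enough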
DYRK1A inh: inhibitors of rat Dyrk1A kinase. AID 504441. inhibition, % at 12.5 µM. ADP-Glo luminescence, NFATc1 peptide. Q63470. 310,000 tested, 0.43% active; in the data active means inhibition above about 50%;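 further: plate controls were vehicle with enzyme for no effect and no enzyme for full effect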
dFosB act-2: enhances mouse delta FosB homodimer binding to DNA | shares compounds with dFosB act-1 | purified delta FosB, TAMRA-CDK5 oligo fluorescence polarization; normalised: neutral wells 0, positive control 100 | activation, % at 24.9 µM | 2,400 tested, under 10 active;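 active means highest replicate activation at or above 34% and every replicate reaching that threshold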;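 further: higher polarization means more probe DNA bound by delta FosB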
An asterisk follows results filed as active.

Screening C[C@@H]1CN([C@@H](C)CO)C(=O)c2cc(NS(C)(=O)=O)ccc2O[C@@H](C)CCCCO[C@H]1CN(C)C returned UUG fidelity -10.
`O=C(Oc1cccc(-n2cnnn2)c1)c1sc2ccccc2c1Cl` gave UUG fidelity -24, CAL PDZ FP-2 -3, CDK5 inh -1, dFosB act-1 143*, DYRK1A inh 2 and dFosB act-2 -2.
O=C(CC(NC(=O)c1ccccc1Cl)c1ccccc1)NCCc1ccc(Cl)cc1 (configuration not stated) was read as CAL PDZ FP-1 -4, UUG fidelity -1, CAL PDZ FP-2 -1, CDK5 inh -1, dFosB act-1 25*, DYRK1A inh 1 and dFosB act-2 0.
CC(=O)NC(CC(=O)NCCc1ccccc1)c1ccccc1 (configuration not stated) was read as CAL PDZ FP-1 -2, UUG fidelity -12, CAL PDZ FP-2 -1, CDK5 inh 2, dFosB act-1 -8 and DYRK1A inh 1.
`Cc1ccc(S(=O)(=O)N(C)C[C@H]2Oc3ccc(NC(=O)CCN4CCOCC4)cc3CC(=O)N([C@@H](C)CO)C[C@@H]2C)cc1` gave UUG fidelity 44.
Screening O=C(O)c1ccc(N/N=C/c2ccc(-c3ccccc3Cl)o2)cc1 returned CAL PDZ FP-1 0, UUG fidelity -29, CAL PDZ FP-2 -4, CDK5 inh 0, dFosB act-1 2 and DYRK1A inh 18.
Screening O=C(N/N=C/c1ccc(-c2ccccc2Cl)o1)c1ccccc1 returned CAL PDZ FP-1 -4, CAL PDZ FP-2 -7, CDK5 inh 1, dFosB act-1 32*, DYRK1A inh -2 and dFosB act-2 0.
Screening Cc1ccc(C(Sc2ccccc2)C(Cn2cncn2)C(=O)c2ccccc2)cc1 (configuration not stated) returned CAL PDZ FP-1 0, UUG fidelity -5, CAL PDZ FP-2 2, CDK5 inh 1, dFosB act-1 24*, DYRK1A inh -10 and dFosB act-2 0.
Cc1nnc(NC(=O)CC(NC(=O)C(F)(F)F)c2ccccc2)s1 (configuration not stated) was read as CAL PDZ FP-1 -2, CAL PDZ FP-2 -1, CDK5 inh -4, dFosB act-1 0 and DYRK1A inh 3.
O=C(CC(NC(=O)C(F)(F)F)c1ccccc1)Nc1nnc(CCc2ccccc2)s1 (configuration not stated) was read as CAL PDZ FP-1 -4, CAL PDZ FP-2 -1, CDK5 inh -1, dFosB act-1 19*, DYRK1A inh -2 and dFosB act-2 4.
Screening Cc1cccc(NC(=O)CSc2nc3ccccc3c3nc(CCc4c(C)n[nH]c4C)nn23)c1 returned CAL PDZ FP-1 0, UUG fidelity -19, CAL PDZ FP-2 0, CDK5 inh 0, dFosB act-1 44*, DYRK1A inh 1 and dFosB act-2 -9.
Screening Cc1n[nH]c(C)c1CCc1nc2c3ccccc3nc(SCC(=O)Nc3ccccc3F)n2n1 returned CAL PDZ FP-1 -5, UUG fidelity -35, CAL PDZ FP-2 -4, CDK5 inh 0, dFosB act-1 57*, DYRK1A inh 3 and dFosB act-2 6.
Screening O=C(CN1CCOCC1)N[C@@H]1CC[C@@H](CCNS(=O)(=O)c2ccccc2F)O[C@H]1CO returned UUG fidelity -5.
For CSc1ccc(/C=C/C(=O)OCC(=O)c2ccc[nH]2)cc1 the results were CAL PDZ FP-1 -2, UUG fidelity -9, CAL PDZ FP-2 -2, CDK5 inh -4, dFosB act-1 22*, DYRK1A inh -1 and dFosB act-2 -2.
CSc1ccc(/C=C/C(=O)OCC(=O)NC2CCCC2)cc1 was read as UUG fidelity 1.
Screening O=C(C[C@H]1C=C[C@@H](NC(=O)Nc2ccc(F)cc2)[C@H](CO)O1)NCCN1CCCC1 returned UUG fidelity 4.
Screening O=C(C[C@H]1CC[C@@H](NC(=O)C2CCC2)[C@@H](CO)O1)NC1CCCCC1 returned UUG fidelity 5.
CCC(=O)N1C[C@H](C)[C@H](OC)CN(C)C(=O)c2cc(NC(=O)NC(C)C)ccc2OC[C@@H]1C was read as UUG fidelity 0.
For O=C(COC(=O)c1ccc(Br)cc1)NCc1ccc(F)cc1 the results were CAL PDZ FP-1 0, UUG fidelity -17, CAL PDZ FP-2 -1, CDK5 inh -2, dFosB act-1 20*, DYRK1A inh -11 and dFosB act-2 2.
For O=C(COC(=O)c1ccc(F)cc1)NCc1ccc(F)cc1 the results were CAL PDZ FP-1 -1, UUG fidelity -21, CAL PDZ FP-2 -2, CDK5 inh 0, dFosB act-1 -8 and DYRK1A inh 1.
For CS(=O)(=O)Nc1ccc2c(c1)[C@@H]1C[C@H](CC(=O)NCc3ccccc3)O[C@@H](CO)[C@@H]1O2 the results were UUG fidelity -1.
COC(=O)C[C@@H]1CC[C@@H]2[C@@H](COc3ccc(NC(=O)c4cscn4)cc3C(=O)N2C)O1 was read as UUG fidelity 13.
For COc1ccc(NC(=O)N(C)C[C@H]2Oc3ccc(NC(=O)CCCN(C)C)cc3C(=O)N([C@H](C)CO)C[C@H]2C)cc1 the results were UUG fidelity 7.
Cc1cc(OCC(=O)Nc2cc(-c3nn4c(C)nnc4s3)ccc2C)ccc1Cl was read as CAL PDZ FP-1 0, UUG fidelity -4, CDK5 inh -1, dFosB act-1 38*, DYRK1A inh 15 and dFosB act-2 5.
COc1ccc(N(CC(=O)Nc2ccc(F)c(Cl)c2)S(=O)(=O)c2c(C)noc2C)cc1 was read as CAL PDZ FP-1 0, UUG fidelity -5, CAL PDZ FP-2 -5, CDK5 inh 0, dFosB act-1 28* and dFosB act-2 2.
`Cc1cccc(S(=O)(=O)N2CC[C@@H]3[C@H](CO)Nc4ccc(C#Cc5cccc(F)c5)cc4[C@@H]32)c1` gave UUG fidelity 2.
Screening C[C@@H]1CCCCO[C@@H](CN(C)C(=O)Cc2ccccc2)[C@@H](C)CN([C@H](C)CO)C(=O)c2cc(NC(=O)CCCCCC(=O)Nc3ccccc3N)ccc2O1 returned UUG fidelity 2.
Screening CC(=O)Nc1ccc(NC(=O)C(=O)NCC(c2ccco2)N2CCc3ccccc3C2)cc1 (configuration not stated) returned CAL PDZ FP-1 0, UUG fidelity 11, CAL PDZ FP-2 -4, CDK5 inh -1, dFosB act-1 22*, DYRK1A inh -3 and dFosB act-2 3.

For reference, some entries already given.
`Cc1cccc(S(=O)(=O)N2CC[C@@H]3[C@H](CO)Nc4ccc(C#Cc5cccc(F)c5)cc4[C@@H]32)c1` gave UUG fidelity 2.
Screening C[C@@H]1CCCCO[C@@H](CN(C)C(=O)Cc2ccccc2)[C@@H](C)CN([C@H](C)CO)C(=O)c2cc(NC(=O)CCCCCC(=O)Nc3ccccc3N)ccc2O1 returned UUG fidelity 2.
Screening CC(=O)Nc1ccc(NC(=O)C(=O)NCC(c2ccco2)N2CCc3ccccc3C2)cc1 (configuration not stated) returned CAL PDZ FP-1 0, UUG fidelity 11, CAL PDZ FP-2 -4, CDK5 inh -1, dFosB act-1 22*, DYRK1A inh -3 and dFosB act-2 3.
